The text below walks through data of ChEMBL document CHEMBL1150976, “The selectivity of protein kinase inhibitors: a further update” (Biochem J, 2007).

Amino acid sequences for entries named in this document (tags omitted). A change or cut given only in a name is not applied to a line headed by its entry.
UniProt P45983: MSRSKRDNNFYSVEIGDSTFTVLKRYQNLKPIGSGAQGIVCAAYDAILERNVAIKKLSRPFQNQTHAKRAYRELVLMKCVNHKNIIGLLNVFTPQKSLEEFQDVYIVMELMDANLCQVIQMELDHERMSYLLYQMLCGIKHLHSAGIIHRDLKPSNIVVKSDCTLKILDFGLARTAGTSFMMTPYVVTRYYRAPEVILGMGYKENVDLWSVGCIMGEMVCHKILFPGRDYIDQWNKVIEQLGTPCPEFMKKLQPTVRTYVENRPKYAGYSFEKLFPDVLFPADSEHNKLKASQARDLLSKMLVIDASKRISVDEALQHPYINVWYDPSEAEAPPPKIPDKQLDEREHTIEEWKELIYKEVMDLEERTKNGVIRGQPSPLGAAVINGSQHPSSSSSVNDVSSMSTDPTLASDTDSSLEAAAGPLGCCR
UniProt Q96SB4, whole entry: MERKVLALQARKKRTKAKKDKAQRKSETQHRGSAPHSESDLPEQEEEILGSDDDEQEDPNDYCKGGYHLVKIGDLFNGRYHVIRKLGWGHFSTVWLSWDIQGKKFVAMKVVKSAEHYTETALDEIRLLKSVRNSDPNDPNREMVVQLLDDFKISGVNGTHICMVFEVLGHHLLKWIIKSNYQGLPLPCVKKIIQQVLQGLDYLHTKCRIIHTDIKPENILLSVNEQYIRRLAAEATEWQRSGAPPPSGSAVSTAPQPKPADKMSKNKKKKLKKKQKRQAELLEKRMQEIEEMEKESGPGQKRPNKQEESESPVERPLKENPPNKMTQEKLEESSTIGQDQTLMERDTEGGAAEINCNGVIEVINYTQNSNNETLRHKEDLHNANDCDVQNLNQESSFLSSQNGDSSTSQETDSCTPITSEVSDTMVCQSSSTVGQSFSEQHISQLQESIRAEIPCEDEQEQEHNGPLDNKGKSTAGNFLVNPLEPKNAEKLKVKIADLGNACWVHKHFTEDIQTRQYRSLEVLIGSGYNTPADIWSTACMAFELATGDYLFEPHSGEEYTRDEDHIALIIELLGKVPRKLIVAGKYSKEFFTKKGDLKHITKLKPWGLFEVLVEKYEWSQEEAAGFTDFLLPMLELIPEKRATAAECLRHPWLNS

The target of assay [1] is Protein kinase C alpha type (Homo sapiens) (UniProt P17252). The experiment in a line: Percentage PKCalpha activity remaining in the presence of 25uM inhibitor.
Assay [2] concerns the target Mitogen-activated protein kinase 8 (Homo sapiens, UniProt P45983). Description: Percentage JNK1 activity remaining in the presence of 25uM inhibitor.
Assay [3] has as its target SRSF protein kinase 1 (Homo sapiens) (UniProt Q96SB4). The experiment in a line: Percentage SRPK1 activity remaining in the presence of 25uM inhibitor.
Assay [4] deals with T1, 3-phosphoinositide-dependent protein kinase 1 (Homo sapiens) (UniProt O15530).
T1 sequence (whole entry): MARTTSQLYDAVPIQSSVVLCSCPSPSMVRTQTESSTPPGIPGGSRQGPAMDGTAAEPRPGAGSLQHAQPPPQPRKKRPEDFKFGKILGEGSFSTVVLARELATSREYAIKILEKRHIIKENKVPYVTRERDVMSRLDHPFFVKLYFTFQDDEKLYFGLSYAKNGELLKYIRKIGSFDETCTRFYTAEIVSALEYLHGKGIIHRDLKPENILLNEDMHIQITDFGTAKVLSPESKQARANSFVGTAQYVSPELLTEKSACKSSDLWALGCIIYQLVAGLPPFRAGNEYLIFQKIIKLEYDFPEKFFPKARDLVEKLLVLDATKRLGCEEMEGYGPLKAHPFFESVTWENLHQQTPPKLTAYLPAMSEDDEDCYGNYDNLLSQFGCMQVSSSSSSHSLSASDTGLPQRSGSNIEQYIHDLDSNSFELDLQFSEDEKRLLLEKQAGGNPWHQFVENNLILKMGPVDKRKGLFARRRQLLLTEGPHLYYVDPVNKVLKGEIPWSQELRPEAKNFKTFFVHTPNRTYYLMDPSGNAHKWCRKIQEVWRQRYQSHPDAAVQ
Description: Percentage PDK1 activity remaining in the presence of 25uM inhibitor.

On to `COc1cc(OC)c(/C=C2/C(=O)Nc3ccccc32)c(OC)c1`, for which the Activity was found to be 90% in assay [1], 94% in assay [2], 95% in assay [3] and 89% in assay [4].
